Assay results taken from ChEMBL document CHEMBL2417384 (J Med Chem, 2013).

Tests used:
Settings in all cases: in vivo
Mus musculus [1] = test: Dose normalized AUC in mouse at 30 mg/kg, po; type: ADME, organism-based; parameters: dose 30 mg/kg, route oral
Mus musculus [2] = test: Dose normalized AUC in mouse at 100 mg/kg, po; type: ADME, organism-based; parameters: dose 100 mg/kg, route oral
Mus musculus [3] = test: Dose normalized AUC in mouse at 1 mg/kg, iv; type: ADME, organism-based; parameters: dose 1 mg/kg, route intravenous
Mus musculus [4] = test: Toxicity in mouse at 300 mg/kg, po; type: organism-based; parameters: dose 300 mg/kg, route oral

Row | SMILES | AUC/dose (Mus musculus [1]) | AUC/dose (Mus musculus [2]) | AUC/dose (Mus musculus [3]) | Activity (Mus musculus [4])
1 | COc1ccc(C(=O)C2CCN(CC(=O)N(Cc3nc4c(c(=O)[nH]3)COCC4)CC3CC3)CC2)cc1 | 33.4 µM·h | 183.4 µM·h | 3.46 µM·h | 
2 | CC(C)(O)c1ccc(-c2nc3c(c(=O)[nH]2)COCC3)cc1 |  |  |  | Non-toxic
